Measurements taken from PubChem BioAssay AID2025 (NMMLSC, 2009).
This is a selection; strong and weak results do not stand in their true shares. Active and inactive are the calls of the source.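 How the source made its calls: active means percent response vs DMSO below 50%; inconclusive means fewer than 70 events counted for the yeast strain; inactive means the rest.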

Assay: compounds altering RPL19A-GFP fluorescence, TOR branch – cell-based, S. cerevisiae, multiplex flow cytometry, MLPCN, primary screen (AID 2025);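 further: median channel GFP fluorescence of the barcoded RPL19A-GFP strain; ratio of sample median GFP to plate DMSO average so 100% = DMSO; lower means less RPL19A-GFP as with rapamycin TOR inhibition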
Conditions: S. cerevisiae RPL19A-GFP strain, 3 h, at 10 µM, hits give low values

Compound	percent response vs DMSO
COc1ccc(OP(C)(=O)Nc2ccccn2)cc1 (configuration not stated)	inactive: 102%
CN(C)CCOC(=O)C(O)(c1ccccc1)C1CCCC1 (configuration not stated)	inactive: 102%
COc1ccccc1OP(C)(=O)Nc1ccc(Br)cc1 (configuration not stated)	inactive: 108%
COc1ccccc1OP(C)(=O)Nc1ccc(C)cc1C (configuration not stated)	inactive: 104%
CP(=O)(Nc1ccccn1)Oc1ccccc1 (configuration not stated)	inactive: 108%
CCc1ccc(OP(C)(=O)O)cc1	inactive: 96.4%
Cc1c(NP(C)(=O)Oc2ccc(C(C)C)cc2)c(=O)n(-c2ccccc2)n1C (configuration not stated)	inactive: 101%
O=[N+]([O-])c1cc([N+](=O)[O-])c(Nc2ccccn2)c([N+](=O)[O-])c1	inactive: 92.8%
COc1ccccc1OP(C)(=O)Nc1ccc(C)c(C)c1 (configuration not stated)	inactive: 90.5%
COc1ccc(OP(C)(=O)Nc2ccccc2Br)cc1 (configuration not stated)	inactive: 101%
Cc1cc(C)cc(OP(C)(=O)Nc2cccc(C(F)(F)F)c2)c1 (configuration not stated)	inactive: 96.5%
CP(=O)(Nc1ccc(Cl)cc1Cl)Oc1ccccc1 (configuration not stated)	inactive: 98.7%
CP(=O)(OCCOc1ccccc1)OCCOc1ccccc1	inactive: 96.5%
Cc1nc2ccc3ccccc3c2o1.O=[N+]([O-])c1cc([N+](=O)[O-])c(O)c([N+](=O)[O-])c1	inactive: 100%
CCOC(=O)c1ccc(NP(C)(=O)Oc2ccc(Cl)cc2)cc1 (configuration not stated)	inactive: 92%
CP(=O)(OC12CC3CC(CC(C3)C1)C2)OC12CC3CC(CC(C3)C1)C2	inactive: 101%
Nc1ccc2c(ccc3cccnc32)n1.O=[N+]([O-])c1cc([N+](=O)[O-])c(O)c([N+](=O)[O-])c1	inactive: 100%
O=C(OCCCN1CCCC1)C(O)(c1ccccc1)C1CCCCC1 (configuration not stated)	inactive: 99.2%
COc1ccccc1OP(C)(=O)Nc1c(C)n(C)n(-c2ccccc2)c1=O (configuration not stated)	inactive: 96.6%
CCc1ccc(OP(C)(=O)Nc2cccnc2)cc1 (configuration not stated)	inactive: 111%
CP(=O)(Oc1ccccc1)N1CCOC1=O (configuration not stated)	inactive: 99.9%
COc1ccc(OP(C)(=O)Nc2ccc(Br)cc2)cc1 (configuration not stated)	inactive: 89.8%
CCN(CC)CC(O)COC(=O)C(O)(c1ccccc1)C1CCCCC1 (configuration not stated)	inactive: 99.1%
CN(C)C(=O)c1c([N+](=O)[O-])cc([N+](=O)[O-])cc1[N+](=O)[O-]	inactive: 92%
COc1ccccc1OP(C)(=O)Nc1ccccc1Br (configuration not stated)	inactive: 99.5%
CC(C)(C)c1ccc(OP(C)(=O)O)cc1	inactive: 97.8%
CP(=O)(Nc1ccc(Cl)cc1)Oc1ccc(F)cc1 (configuration not stated)	inactive: 105%
